Data on two molecules can be found in ChEMBL document CHEMBL3997841, “Continued optimization of the M5 NAM ML375: Discovery of VU6008667, an M5 NAM with high CNS penetration and a desired short half-life in rat for addiction studies” (Bioorg Med Chem Lett, 2017).

The chains behind the UniProt entries cited, without tags or fusion partners.
UniProt P08912, whole entry: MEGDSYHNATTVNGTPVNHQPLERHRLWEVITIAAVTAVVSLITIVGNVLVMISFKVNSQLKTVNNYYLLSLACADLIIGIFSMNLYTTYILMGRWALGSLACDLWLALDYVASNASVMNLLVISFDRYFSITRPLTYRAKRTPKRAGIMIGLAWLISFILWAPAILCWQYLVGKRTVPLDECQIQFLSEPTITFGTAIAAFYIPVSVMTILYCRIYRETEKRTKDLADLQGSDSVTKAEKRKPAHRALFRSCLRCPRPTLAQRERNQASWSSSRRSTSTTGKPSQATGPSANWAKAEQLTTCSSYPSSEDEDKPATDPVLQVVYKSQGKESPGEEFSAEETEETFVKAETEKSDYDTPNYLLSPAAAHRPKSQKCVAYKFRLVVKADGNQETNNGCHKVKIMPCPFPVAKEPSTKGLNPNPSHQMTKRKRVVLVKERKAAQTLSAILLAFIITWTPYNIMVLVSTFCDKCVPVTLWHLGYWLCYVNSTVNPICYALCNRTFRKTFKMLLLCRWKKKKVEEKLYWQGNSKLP

This assay deals with Muscarinic acetylcholine receptor M5 (Homo sapiens, UniProt P08912). As to the kind of experiment: Negative allosteric modulation of human M5 receptor expressed in CHO cells assessed as inhibition of acetyl choline-induced calcium mobilization at 10 uM preincubated for 150 secs followed by acetyl choline addition by Fluo-4-AM dye based fluorescence assay relative to acetyl choline; values are per cent of control. (A change in cytosolic calcium serves as a functional read-out for many receptors and channels.)

In the case of `Cc1cc(C23c4ccccc4C(=O)N2CCN3C(=O)c2ccc(F)c(F)c2)ccc1Cl` (racemic), the residual activity came out at 2.9%.
For the molecule `Cc1cc([C@@]23c4ccccc4C(=O)N2CCN3C(=O)c2ccc(F)c(F)c2)ccc1Cl`, the residual activity is 2.3%.
